The list shows a part of the results, in another mix than the full data. Inconclusive results are not listed. Active and inactive are the calls of the source. Calls come from the whole dose curve; as a rule, active = well fitted activation curve with a large enough effect in the signal ratio, with a control signal flat (not every such curve was filed as active); inconclusive = small, poorly fitted or top-dose-only effect, or effect the other way, or a change in a side signal; inactive = flat fitted curve, though single readings scatter; the % refers to the signal ratio.
Test: Cell signaling CRE-BLA (Fsk stim); note: % of control where 0% means no effect
Details: CHO CRE-bla reporter (cAMP response element driving beta-lactamase), forskolin EC10, beta-lactamase ratio; at 38.2 µM unless noted
Description: NIH Molecular Libraries Screening Centers Network [MLSCN]
NIH Chemical Genomics Center [NCGC]
Assay Provider: Marshall W. Nirenberg, U.S. National heart lung & blood institute
Memories persist for different lengths of time, from seconds or minutes to a lifetime. There are two kinds of memory: short-term memory (STM) and long-term memory (LTM). STM lasts for minutes to hours, which maybe mediated by modifications of molecules involved in synaptic functions. LTM lasts for days or longer, and may be due to the formation of new synapses or restructuring of existing synapses. LTM, but not STM, requires gene transcription and synthesis of proteins. CREB (cyclic-AMP Responsive Element Binding Protein) is one of the candidates plays an important role for enhancement of some types of LTM. CREB, a family of transcription factors, regulates the transcription of genes containing cAMP Responsive Elements (CRE). CRE is a nucleotide sequence often found in the promoter regions of genes that are binding sites for CREB.
Using a beta-lactamase reporter-gene under control of cAMP responsive element, a cell-based assay [CellSensor(TM) CRE-bla CHO developed by Invitrogen Corp.] was used to measure forskolin-induced signaling. Library compounds were measured for their ability to modulate positively or negatively the action of EC10 NKH 477, a water soluble forskolin, on reporter gene activity. Compounds were screened in a titration series in 1536-well format. Positive and negative modulators were identified based on the AC50 values derived from the screening data.
NCGC Assay Protocol Summary
2000 cells/5uL in Opti-MEM medium containing 0.5% dialyzed FBS, 0.1 mM NEAA, 1 mM sodium pyruvate and 10 mM HEPES was dispensed into 1536-well plates and cells were cultured at 37 degrees Celsius overnight. […] And then the plates were incubated at 37 degrees Celsius for 3 hours. 1 uL of CCF4-dye mixture was added to each well. After incubated at room temperature for 2 hours the plates were measured on an EnVision plate reader at Excitation 405nm, Emission1=460nm and Emission 2=530nm. The %Activity was determined from the ratio of 460nm/530nm.
Keywords: NIH Roadmap, MLSCN, MLSMR, qHTS, NCGC, CRE, beta-lactamase reporter-gene assay.
With `O=C(O)C1(Nc2ccccc2)CCN(Cc2ccccc2)CC1` the activity change, negative = inhibition was inactive: 5.43% [at 7.6 µM].
In the case of `CCC(CO)(C(=O)OC1CN2CCC1CC2)c1ccccc1` (stereo not drawn), the activity change, negative = inhibition is reported as inactive: -2.58%.
With `Fc1ccccc1NC1CCN(Cc2ccccc2)CC1` the activity change, negative = inhibition was inactive: -7.19%.
For `ClCCOP(OCCCl)OCCCl`, the activity change, negative = inhibition was inactive: -9.37%.
In the case of `N/C(=N\O)c1c(N)no[n+]1[O-]`, the activity change, negative = inhibition is reported as inactive: 9.23%.
In the case of `CCOP(=O)(Cl)Cl`, the activity change, negative = inhibition is reported as inactive: -9.87%.
In the case of `NC1CCCCC1.NP(=O)(O)N(CCCl)CCCl`, the activity change, negative = inhibition is reported as inactive: 2.87% [at 7.6 µM].
With `N#CC1(Nc2ccccc2)CCN(CCc2ccccc2)CC1` the activity change, negative = inhibition was inactive: 15.9%.

— PubChem BioAssay AID662 (National Center for Advancing Translational Sciences (NCATS), 2007)
